Antibody variant affinities, Ab-14 heavy chain, assay B

Binding partner: SARS-CoV-2 spike HR2 peptide, sequence PDVDLGDISGINAS.

The variants keep the light chain, the linker and the frameworks of Ab-14 (scFv order VH, a (GGGGS)3 linker, VL).
VH: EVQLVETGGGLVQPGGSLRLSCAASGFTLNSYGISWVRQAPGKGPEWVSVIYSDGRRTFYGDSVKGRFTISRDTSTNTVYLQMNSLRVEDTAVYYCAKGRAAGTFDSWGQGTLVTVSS
VL: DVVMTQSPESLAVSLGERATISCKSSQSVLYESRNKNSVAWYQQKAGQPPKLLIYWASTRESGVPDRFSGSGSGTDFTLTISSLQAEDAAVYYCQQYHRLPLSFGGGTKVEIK

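The starting antibody came from a phage panning campaign against this peptide. These sequences belong to a second round, designed from the earlier measurements on random variants of the parent. Several design methods are mixed in this list. The scFvs were displayed on barcoded MATa yeast, the peptide on MATalpha yeast. After mating in shaken culture at 30 °C for 16 h, diploids were selected and their barcode pairs sequenced. The ratio of observed to expected reads was calibrated, replicate by replicate, on BCL2-family standards whose Kd was known from biolayer interferometry. Each pool was mated in six replicate cultures.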

The parent's heavy chain CDRs are GFTLNSYGIS, VIYSDGRRTFYGDSVK, GRAAGTFDS; each variant's own CDRs replace them letter for letter. Variants here have at most six changes. Each Kd is an estimate from the mating assay, the geometric mean of the replicates in which the pair was seen; lower is stronger. An entry "nd" has no value in the source: the pair was not observed among the diploids in any replicate. This suggests poor binding but is not conclusive. The parent sequence was in this pool as ten entries: three were never detected, three once, and four in most replicates, with averages from 2.2 nM to 240 nM. The authors' rule: three or more of the six replicates give a measured affinity, fewer mean a poor binder. Background: pairings of all heavy chain designs with three empty control strains gave a value in 1% of cases (median 120 nM, 5th percentile 7.0 nM). Values in that range, when seen in few replicates, are hard to tell from nonspecific mating. For each scFv, signals with the empty controls are counted beside the result. Values of this round are not directly comparable with the first-round values of the same sequences.

For GFELNSYGIS / VIYSDGRRTFYGDSVK / GNAAGTFDT, the assay gave 5.8 nM (6 of 6 replicates; controls 1 of 18).
For GFNLNSYGIS / VIYSDGRRTFYGDSVK / GQIAGTFDS, the assay gave 4.7 nM (6 of 6 replicates; controls 0 of 18).
For GFTLESYGIS / VIYSDGRRTFYGDSVK / GMAAGTFDL, the assay gave 35 nM (5 of 6 replicates; controls 0 of 18).
For GFTLNSYGIS / VIYSDGRRTFYGDSVK / GVAAGTFLS, the assay gave nd (0 of 6 replicates; controls 0 of 18).
For GFDLNSYGIS / VIYSDGKRTFYGDSVK / GRMAGTFDS, the assay gave 1.1 nM (6 of 6 replicates; controls 0 of 18).
For GFWLNSYGIS / VIYSDGRRTFYDDSVK / GQTAGTFDS, the assay gave 38 nM (6 of 6 replicates; controls 1 of 18).
For GFSLNSYGIS / VIYSDGRRTFYGDSVK / GQEAGTFDT, the assay gave 650 pM (6 of 6 replicates; controls 0 of 18).
For GFTINSYGIS / VIYSDGRRTFYGDSVK / GIAAGTFDS, the assay gave nd (0 of 6 replicates; controls 0 of 18).
For GFALNSYGIS / VIYSDGRRTFYIDSVK / GQLAGTFDS, the assay gave 4.8 nM (3 of 6 replicates; controls 0 of 18).
For GLTLEDYGIS / VIYSDGRRTFYTDSVK / GRATGTFDS, the assay gave nd (0 of 6 replicates; controls 0 of 18).
For GFSLNSYGIS / VIYSDGRRTFYGDSVK / GVKAGTFDD, the assay gave 140 nM (5 of 6 replicates; controls 0 of 18).
For GFWLNDYGIS / VIYSDGRRTFYGDSVK / GRTAGTFDA, the assay gave 5.5 nM (6 of 6 replicates; controls 0 of 18).
For GFTLSEYGIS / VIYSDGRRTFYGDSVK / GRAALTFDS, the assay gave 220 nM (1 of 6 replicates; controls 0 of 18).
For GFNLNSYGIS / VIYSDGRRTFYIDSVK / GQAAGTFDK, the assay gave 14 nM (4 of 6 replicates; controls 0 of 18).
For GFSLNEYGIS / VIYSDGRRTFYGDSVK / GRMAGTFDA, the assay gave 860 pM (6 of 6 replicates; controls 0 of 18).
For GFTLNSYGIS / VIYSDGRRCFYGDSVK / GFAAGLFDW, the assay gave nd (0 of 6 replicates; controls 0 of 18).
For DFKLNSYGIS / VIYSDGRRTFYGDSVK / GSAAGLFDS, the assay gave nd (0 of 6 replicates; controls 2 of 18).
For GFTLNEYGIS / VIYSDGRRTFYSDSVK / GRAAGFFTS, the assay gave nd (0 of 6 replicates; controls 0 of 18).
For GFDLNEYGIS / VIYADGRRTFYADSVK / GEAAGTFDE, the assay gave 2.0 nM (6 of 6 replicates; controls 0 of 18).
For GFPLNSYGIS / VIYSDGKRTFYGDSVK / GRTAGTFDS, the assay gave 28 nM (5 of 6 replicates; controls 0 of 18).
For GFDLNDYGIS / VIYSDGRRTWYGDSVK / GRAAGTFDS, the assay gave 17 nM (6 of 6 replicates; controls 0 of 18).
For GFTLNDYGIS / VIYSDGRRTFYGDSVK / GRSAGTFDK, the assay gave 43 nM (1 of 6 replicates; controls 0 of 18).
For GFNLNSYGIS / VIYSDGRRTFYADMVK / GRTAGTFDS, the assay gave 11 nM (2 of 6 replicates; controls 0 of 18).
For GFTLNDYGIS / VIYSDGIRTFYGDSVK / GRAALTFIS, the assay gave nd (0 of 6 replicates; controls 0 of 18).
For GFTLNEYGIS / VIYSDGRRTFYTDSVK / GRFAGEFDS, the assay gave nd (0 of 6 replicates; controls 2 of 18).
For GFTLNSYGIS / VIYSDGRRTFYNDSVK / GRAAGTFMW, the assay gave 42 nM (2 of 6 replicates; controls 0 of 18).
For GFDLNSYGIS / VIYSDGRRTFYDDSVK / GHAAGTFDS, the assay gave 670 pM (6 of 6 replicates; controls 0 of 18).
For GFTLNSYGCS / VIYSDGRRTFYSDAVK / GRAGGTFDS, the assay gave nd (0 of 6 replicates; controls 0 of 18).
For GFSLNDYGIS / VIYSDGIRTFYGDSVK / GRTAGTFDS, the assay gave 790 pM (6 of 6 replicates; controls 1 of 18).
For GFTLNEYGIS / VIYSDGRRTFYTDSVK / GRFAFQFDS, the assay gave 500 nM (1 of 6 replicates; controls 0 of 18).
For GFDLNSYGIS / VIYSDGRRTFYGDSVK / GRTAGAFWS, the assay gave nd (0 of 6 replicates; controls 0 of 18).
For GFSLNEYGIS / VIYSDGRRTFYGDHVK / GRTAGTFDD, the assay gave nd (0 of 6 replicates; controls 0 of 18).
For GFTLNSYGIS / VIYSDGRRTFYGDSVK / GNAAGTFDS, the assay gave 53 nM (5 of 6 replicates; controls 0 of 18).

2 of these entries, quoted again:

CDR-H1,CDR-H2,CDR-H3,Kd (apparent),replicates with signal,control signals
GFNLNSYGIS,VIYSDGRRTFYADMVK,GRTAGTFDS,11 nM,2/6,0/18
GFSLNSYGIS,VIYSDGRRTFYGDSVK,GQEAGTFDT,650 pM,6/6,0/18

The measurements come from Li et al. 2023 (doi:10.1038/s41467-023-39022-2) through the FLAb antibody collection.